# Source: US20100055078A1, “METHODS OF MAKING A TRANSPLANTABLE BONE REPAIR SYSTEM USING MULTIPOTENT STEM CELLS” (The Government of the U.S.A, as represented by the …, priority 2008, published 2010)
# Test system: MC3T3-E1 cells
# Experiment: qRT-PCR gene expression in mineralizing cells treated with growth factor
# Assay type: cell-based
# Experimental: Cell Culture: MC3T3-E1 cells were grown and mineralized essentially as described in Example 1. Mineralizing MC3T3-E1 cells were treated with FGF-2 (5 ng/ml) or BMP-2 (100 ng/ml) for 24 hours. hMSC cells were expanded with 5 ng/ml FGF-2 for 3 to 10 days, then treated with DM for 3 or 10 days.
# RNA Isolation: RNA was isolated using the RNeasy™ Mini kit (Qiagen, Valencia, Calif.) or TriReagent™ (Sigma-Aldrich, St. Louis, Mo.) according to the manufacturer's protocol.
# Reverse Transcription: 1.5 μg of RNA was added to 30 μl reverse transcriptase (RT) reaction buffer containing 5 mM MgCl2, 10 mM Tris-HCl (pH 8.3), 50 mM KCl, 1 mM dNTPs, 2.5 μM oligo d(T) primer, 2.5 U/μl of MuLV RT, and 1 U/μl of RNase inhibitor. The RT reaction was incubated at room temperature for 10 min, 42° C. for 30 min, inactivated at 99° C. for 5 min, and cooled at 5° C. for 5 min.
# Real-time Quantitative RT-PCR Reaction (qRT-PCR): 2 μl of cDNA from the RT reaction was added to 20 μl real-time quantitative polymerase chain reaction (qRT-PCR) mixture containing 10 μl of 2×SYBR® Green PCR Master Mix (Applied Biosystems, Foster City, Calif.) and 12 pmol oligonucleotide primers. PCR was carried out in a Bio-Rad MY iQ® Single-Color Real-Time PCR Detection System (Bio-Rad, Hercules, Calif.) at 50° C. for 2 min, 95° C. for 10 min to activate the Taq polymerase, followed by 50 amplification cycles, consisting of denaturation at 95° C. for 1 min 40 sec, annealing at 63° C. for 1 min 10 sec, and elongation at 72° C. for 1 min 40 sec. Fluorescence was measured and used for quantitative purposes. At the end of the amplification period, melting curve analysis was performed to confirm the specificity of the amplicon. RNA samples were normalized to a cyclophilin (CPHI) internal standard. Relative quantification of gene expression was calculated by using the 2^−(Ct gene T−Ct CPHI T)−(Ct gene 0 hr−Ct CPHI 0 hr) equation, where “Ct gene T” represents the calculated threshold cycle (Ct) of a time point of each sample other than 0 hr, or each treatment other than control. Relative gene abundance is calculated using 2^(Ct gene T−Ct CPHI T), resulting numbers were then multiplied by 10,000 for better graphical presentation. Primer sequences were previously described (Hughes-Fulford and Gilbertson, FASEB J. 13:S121-127, 1999; Hughes-Fulford et al., Gravit. Space Biol. Bull. 11:51-60, 1998; Tjandrawinata and Hughes-Fulford, Adv. Exp. Med. Biol. 407:163-170, 1997; Hughes-Fulford, Adv. Exp. Med. Biol. 400A:269-278, 1997; Hughes-Fulford and Lewis, Exp. Cell Res. 224:103-109, 1996). All data derived using qRT-PCR was from multiple experiments with triplicate independent biological samples.
# [1] = 24 hours, FGF-2 5 ng/ml or BMP-2 100 ng/ml, corrected to cyclophilin
substance,measurement,setting,value
bone morphogenetic protein-2 [BMP-2],Relative abundance of gene expression: ALP,[1],91.77
same,Relative abundance of gene expression: BMP-2,[1],0.38
same,Relative abundance of gene expression: Collagen Type I,[1],*170243.43
same,Relative abundance of gene expression: Fibronectin,[1],**239750.67
same,Relative abundance of gene expression: IGF-1,[1],4193.34
same,Relative abundance of gene expression: MMP3,[1],0.12
same,Relative abundance of gene expression: Noggin,[1],2.41
same,Relative abundance of gene expression: OC,[1],*34.04
same,Relative abundance of gene expression: RUNX2,[1],1043.65
same,Relative abundance of gene expression: TGFβ,[1],*185.20
same,Relative abundance of gene expression: VEGFA,[1],537.13
same,"expression of genes associated with angiogenesis and migration e.g. vegf and mmp3, in words",after 24 hours of treatment,little or no changes
same,"expression of genes associated with mineralization including col1a1, fn, noggin and oc, in words",after 24 hours of treatment,significant increases
same,"mineralizing RNA profile of igf-1, alp and bmp-2, in words",after 24 hours of treatment,maintained
